What is called IC50 is the midpoint of a concentration-inhibition curve. The low end stands for greater potency, the high end for weaker potency.

Protein sequences, listed by entry. Tags and fused reporters are not part of them. Lines headed by an entry give the natural chain unless they say otherwise; changes in a name come on top. Residues count along the entry.
UniProt P28827, 21-1452: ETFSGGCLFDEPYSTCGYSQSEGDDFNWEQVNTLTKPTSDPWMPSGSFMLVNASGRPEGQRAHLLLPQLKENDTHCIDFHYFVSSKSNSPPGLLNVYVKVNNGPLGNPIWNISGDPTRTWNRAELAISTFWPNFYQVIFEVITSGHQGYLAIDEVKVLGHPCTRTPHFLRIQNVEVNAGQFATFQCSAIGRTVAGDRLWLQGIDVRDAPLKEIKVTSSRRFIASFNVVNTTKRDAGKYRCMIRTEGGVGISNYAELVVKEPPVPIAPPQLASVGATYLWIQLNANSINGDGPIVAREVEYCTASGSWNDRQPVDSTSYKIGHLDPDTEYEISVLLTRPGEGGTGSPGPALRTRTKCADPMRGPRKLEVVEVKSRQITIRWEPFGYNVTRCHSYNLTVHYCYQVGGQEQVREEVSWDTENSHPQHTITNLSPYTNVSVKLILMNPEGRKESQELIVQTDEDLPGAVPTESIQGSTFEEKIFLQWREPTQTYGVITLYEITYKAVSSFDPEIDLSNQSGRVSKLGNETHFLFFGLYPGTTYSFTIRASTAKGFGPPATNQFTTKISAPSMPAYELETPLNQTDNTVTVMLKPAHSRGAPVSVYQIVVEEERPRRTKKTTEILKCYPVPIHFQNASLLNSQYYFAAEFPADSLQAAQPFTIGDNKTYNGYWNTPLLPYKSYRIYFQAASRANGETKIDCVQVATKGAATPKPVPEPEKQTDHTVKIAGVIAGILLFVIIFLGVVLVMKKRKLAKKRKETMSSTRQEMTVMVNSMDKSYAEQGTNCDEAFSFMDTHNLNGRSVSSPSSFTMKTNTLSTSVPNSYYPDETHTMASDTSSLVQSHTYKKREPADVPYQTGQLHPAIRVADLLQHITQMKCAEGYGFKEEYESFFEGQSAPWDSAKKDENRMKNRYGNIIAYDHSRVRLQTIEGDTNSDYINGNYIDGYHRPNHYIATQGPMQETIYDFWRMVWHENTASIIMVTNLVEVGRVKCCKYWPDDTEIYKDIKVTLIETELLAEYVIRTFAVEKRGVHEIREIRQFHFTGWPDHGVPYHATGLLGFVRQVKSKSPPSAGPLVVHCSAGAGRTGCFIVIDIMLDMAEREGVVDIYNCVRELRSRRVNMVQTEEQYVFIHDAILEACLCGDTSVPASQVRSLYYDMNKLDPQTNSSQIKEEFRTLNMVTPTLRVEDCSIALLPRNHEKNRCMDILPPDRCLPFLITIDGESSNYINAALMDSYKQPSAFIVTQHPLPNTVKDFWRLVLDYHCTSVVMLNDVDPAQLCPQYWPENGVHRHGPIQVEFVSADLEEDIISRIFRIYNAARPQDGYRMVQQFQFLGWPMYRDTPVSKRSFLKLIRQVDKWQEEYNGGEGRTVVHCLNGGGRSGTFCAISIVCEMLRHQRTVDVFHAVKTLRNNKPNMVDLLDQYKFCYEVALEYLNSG
UniProt P9WIA1: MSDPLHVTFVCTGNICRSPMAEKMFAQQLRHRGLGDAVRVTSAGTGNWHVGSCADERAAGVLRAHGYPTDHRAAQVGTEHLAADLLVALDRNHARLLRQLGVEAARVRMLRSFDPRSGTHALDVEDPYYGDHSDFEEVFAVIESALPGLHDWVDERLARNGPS

Consider 5 molecules from patent US10494332B2, “Protein tyrosine phosphatases or SHP2 inhibitors and uses thereof” (Indiana University Research and Technology Corporation, priority 2015, dated 2019).

For experiment [1], the target named is PTPμ (Homo sapiens, UniProt P28827). Nature of the experiment: biochemical.
In experiment [2] the target is T1, PP5 (Homo sapiens, UniProt P53041).
T1 sequence (P53041 1-499): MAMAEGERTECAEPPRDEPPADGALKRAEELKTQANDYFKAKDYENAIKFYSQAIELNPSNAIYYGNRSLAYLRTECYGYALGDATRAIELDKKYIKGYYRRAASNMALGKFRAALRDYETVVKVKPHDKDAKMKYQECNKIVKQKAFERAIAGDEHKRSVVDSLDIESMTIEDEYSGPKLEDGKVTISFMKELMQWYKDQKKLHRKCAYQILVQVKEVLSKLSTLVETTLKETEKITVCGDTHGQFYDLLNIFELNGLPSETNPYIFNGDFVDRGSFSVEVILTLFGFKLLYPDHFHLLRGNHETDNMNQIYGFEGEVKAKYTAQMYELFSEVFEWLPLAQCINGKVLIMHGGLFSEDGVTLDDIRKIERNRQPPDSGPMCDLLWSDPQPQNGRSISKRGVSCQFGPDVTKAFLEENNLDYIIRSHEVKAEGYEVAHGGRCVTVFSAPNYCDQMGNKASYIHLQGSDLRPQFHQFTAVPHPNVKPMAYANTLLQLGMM
Nature of the experiment: biochemical.

For experiment [3], the target named is T2, Laforin (Homo sapiens, UniProt O95278).
T2 sequence (O95278 1-331): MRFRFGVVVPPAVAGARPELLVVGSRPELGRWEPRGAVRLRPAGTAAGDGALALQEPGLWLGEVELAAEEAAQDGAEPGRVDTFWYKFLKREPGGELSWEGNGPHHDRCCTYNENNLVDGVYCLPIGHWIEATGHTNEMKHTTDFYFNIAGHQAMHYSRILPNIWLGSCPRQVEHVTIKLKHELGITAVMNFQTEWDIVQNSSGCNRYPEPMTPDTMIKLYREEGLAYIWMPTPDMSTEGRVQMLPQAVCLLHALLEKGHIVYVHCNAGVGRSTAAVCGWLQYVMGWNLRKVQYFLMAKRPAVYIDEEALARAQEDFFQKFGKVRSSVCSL
Kind of experiment: PTP inhibition assay (pNPP). It counts as biochemical.

Experiment [4] concerns the target mPTPA (Mycobacterium tuberculosis, UniProt P9WIA1). The experiment is classed as biochemical.
The target in experiment [5] is T3, mPTPB (Mycobacterium tuberculosis, UniProt I6WXK4).
T3 sequence (I6WXK4 1-276): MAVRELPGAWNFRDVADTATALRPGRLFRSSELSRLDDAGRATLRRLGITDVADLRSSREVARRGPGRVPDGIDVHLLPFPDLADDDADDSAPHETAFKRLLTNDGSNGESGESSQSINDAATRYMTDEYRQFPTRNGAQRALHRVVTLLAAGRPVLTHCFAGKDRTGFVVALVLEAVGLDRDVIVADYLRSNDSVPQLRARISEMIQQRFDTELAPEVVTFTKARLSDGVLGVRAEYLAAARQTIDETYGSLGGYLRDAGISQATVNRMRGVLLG
The experiment is classed as biochemical.

On to `CC(C)c1ccc(NC(=O)C(=O)Nc2ccc(NC(=O)C(c3ccccc3)S(=O)(=O)O)cc2)cc1` (centres unmarked) [Compound 6, 2-((4-(2-((4-isopropylphenyl)amino)-2-oxoacetamido)phenyl)amino)-2-oxo-1-phenylethanesulfonic acid], for which the IC50 in experiment [1] and in experiment [2] was more than 10 µM in each case.
Take `Cc1c(Br)cc(NC(=O)C(c2ccccc2)S(=O)(=O)O)cc1Br` (centres unmarked) [Compound L319M34]: in experiment [3], the IC50 amounted to 1.05 µM.
Turning to `O=C(Nc1ccc(N2CCOCC2)cc1)C(c1ccccc1)S(=O)(=O)O` (centres unmarked) [Compound L319M68], in experiment [4], the “Fold selectivity for mPTPA over Laforin” value came to 30 fold, the “Fold selectivity for mPTPA over human LMWPTP” value is 80 fold, the “Fold selectivity for mPTPA over mPTPB” value came out at 20 fold and the “Fold selectivity for mPTPA over other PTPs (human PTP panel)” value is recorded as more than 800 fold.
For the molecule `O=C(C(c1ccccc1)S(=O)(=O)O)N1CCC(c2ccc(Cl)c(Cl)c2)CC1` (centres unmarked) [Compound L319N47], in experiment [5], the “Fold increase in potency against mPTPB compared to SPAA” value is given as 2000 fold, the “Fold selectivity for mPTPB over mPTPA” value was 1000 fold and the “Fold selectivity for mPTPB over other PTPs (PTP panel)” value is listed as “greater than 2000 fold”.
Turning to `O=C(C(c1ccccc1)S(=O)(=O)O)N1CCCC2CCCCC21` (centres unmarked) [Compound L319N53], in experiment [5], the “Fold selectivity for mPTPB over other PTPs (PTP panel)” value is “greater than 10000 fold”.
